Test results as given in patent US20250179114A1.

Amino acid sequences for entries named in this document (tags omitted).
UniProt P04150, whole entry: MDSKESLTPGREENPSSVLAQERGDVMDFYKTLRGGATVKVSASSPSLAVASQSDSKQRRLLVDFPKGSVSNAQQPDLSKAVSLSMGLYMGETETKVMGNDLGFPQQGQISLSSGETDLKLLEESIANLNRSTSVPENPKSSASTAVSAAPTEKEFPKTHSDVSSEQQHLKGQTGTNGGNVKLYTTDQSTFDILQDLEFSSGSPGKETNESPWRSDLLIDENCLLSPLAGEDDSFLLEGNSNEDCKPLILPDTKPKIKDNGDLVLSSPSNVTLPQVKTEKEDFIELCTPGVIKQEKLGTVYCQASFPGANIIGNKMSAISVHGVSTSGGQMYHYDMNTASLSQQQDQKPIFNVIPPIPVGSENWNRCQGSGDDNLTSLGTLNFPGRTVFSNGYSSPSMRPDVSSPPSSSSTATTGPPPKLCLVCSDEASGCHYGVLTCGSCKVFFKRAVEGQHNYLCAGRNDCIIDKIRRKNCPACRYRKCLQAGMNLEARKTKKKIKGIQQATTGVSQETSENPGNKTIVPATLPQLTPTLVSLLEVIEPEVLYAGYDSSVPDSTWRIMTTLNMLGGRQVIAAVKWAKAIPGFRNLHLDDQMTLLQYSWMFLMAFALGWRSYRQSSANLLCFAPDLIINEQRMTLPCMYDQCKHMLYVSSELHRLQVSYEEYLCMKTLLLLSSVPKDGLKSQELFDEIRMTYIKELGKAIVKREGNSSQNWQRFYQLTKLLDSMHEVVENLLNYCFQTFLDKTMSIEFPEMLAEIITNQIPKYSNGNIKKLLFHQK

Biological target: glucocorticoid receptor (Homo sapiens, UniProt P04150)
Experiment: Activity assay of glucocorticoid receptor reporter gene GRE
Type: cell-based
Settings: read-out: EC50 (nM), glucocorticoid receptor reporter gene GRE activity; HEK293 cells transfected with pGL5 and pBIND-GR; 24 h; Dual-Glo luciferase

C[C@]12C=CC(=O)C=C1CC[C@@H]1[C@@H]2[C@@H](O)C[C@@]2(C)[C@H]1C[C@H]1O[C@@H](c3ccc(Cc4cccc(N)c4)o3)O[C@]12C(=O)CO
EC50: > 1000 nM
